Assay results from patent US12030897B2, “Pyrrolo[2,1-f][1,2,4]triazine derivatives serving as selective HER2 inhibitors and application thereof” (MEDSHINE DISCOVERY INC., priority 2018, dated 2024).

System: NCI-N87 cell
Test: Cell proliferation inhibitory activity, Cell-Titer-Glo, NCI-N87
Conditions: read-out: NCI-N87 cell IC50; 3 days incubation

Compound	IC50
Cc1cc(Nc2ncnn3ccc(CN4CC[C@H](N)[C@@H](F)C4)c23)ccc1Oc1ccn2ncnc2c1 (single isomer, unassigned) [Example 22]	0.013 µM
Cc1cc(Nc2ncnn3ccc(CN4CC[C@H](N)[C@@H](F)C4)c23)ccc1Oc1ccn2ncnc2c1 (single isomer, unassigned) [Example 24]	0.007 µM
